Data as given in patent US10342818B2, “Dual-action compounds targeting adenosine A2A receptor and adenosine transporter for prevention and treatment of neurodegenerative diseases” (Academia Sinica, priority 2009, dated 2019).

Amino acid sequences for entries named in this document (tags omitted). Residues count along the entry.
UniProt H0V4R7, 1-461: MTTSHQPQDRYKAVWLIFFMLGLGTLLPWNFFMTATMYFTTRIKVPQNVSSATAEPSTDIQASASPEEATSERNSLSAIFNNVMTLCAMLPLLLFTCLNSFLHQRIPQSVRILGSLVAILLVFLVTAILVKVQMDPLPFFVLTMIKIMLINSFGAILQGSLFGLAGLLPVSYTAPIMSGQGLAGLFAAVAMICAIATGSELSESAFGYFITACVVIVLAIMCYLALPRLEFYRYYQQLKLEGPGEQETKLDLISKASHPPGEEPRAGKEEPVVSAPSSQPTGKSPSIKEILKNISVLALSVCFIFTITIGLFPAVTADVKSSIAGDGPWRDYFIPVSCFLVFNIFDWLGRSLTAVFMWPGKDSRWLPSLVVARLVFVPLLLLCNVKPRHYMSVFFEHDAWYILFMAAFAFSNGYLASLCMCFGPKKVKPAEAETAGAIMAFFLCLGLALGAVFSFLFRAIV

Legend:
PC12 cells = experiment: MTT metabolism assay, rescue of serum-deprived PC12 cells from apoptosis; conditions: 0.01 μM, 24 h
Description: We have previously reported that compound 1 isolated from an aqueous methanolic extract of Gastrodia elata prevented apoptosis of serum-deprived PC12 cells by suppressing JNK activity.^15 In this study, serum-deprived PC12 cells were treated with the compound at the indicated dose for 24 h. Cell viability was monitored by the MTT assay, and is expressed as a percentage of the MTT activity measured in the serum-containing group. At a concentration of 0.01 μM, compounds 4 and 6 also rescued PC12 cells from the apoptosis evoked by serum withdrawal equally as well as 1 according to the cell viability of MTT assays. […]
PC12 cells purchased from ATCC (Manassas, Va., USA) were maintained in Dulbecco's modified Eagle's medium (DMEM) supplemented with 10% horse serum and 5% fetal bovine serum and incubated in a CO2 incubator (5%) at 37° C. Survival was assessed by the 3-(4,5-dimethylthiazol-2-yl)-2,5-diphenyltetrazolium bromide (MTT) metabolism assay as described elsewhere.^49,50 In brief, cells grown on 150-mm plates were washed three times with PBS and resuspended in DMEM. […] The absorbance at 570/630 nm in each well was measured on a micro-enzyme-linked immunosorbent assay (ELISA) reader.

[1] = biological target: equilibrative nucleoside transporter 1 (ENT1) (Cavia porcellus, UniProt H0V4R7); experiment: Radioligand binding assay for adenosine transporters (3H-NBTI, cerebral cortex membranes); conditions: for Ki: read-out: Ki ENT1, guinea pig equilibrium transporter 1, cerebral cortex membranes, 3H-NBTI 0.5 nM
human A2A receptor = human A2A receptor (Homo sapiens, UniProt P29274); experiment: Radioligand binding assay of the A2A receptor (3H-CGS21680, MDS Pharma Services); conditions: for Ki: read-out: Ki A2A-R, human adenosine A2A receptor, HEK293 membranes, 3H-CGS21680 50 nM

Row | Binding with / activity against ENT1, result in words ([1]; radioligand binding) | Ki [1] [µM] | Binding with A2AR, result in words (human A2A receptor; radioligand binding) | Ki (human A2A receptor) [µM] | Compound | Rescue of PC12 cells from apoptosis evoked by serum withdrawal (cell viability, MTT) (PC12 cells)
1 | sub-micromolar range | 3.72 | low micromolar | 3.21 | OC[C@H]1O[C@@H](n2cnc3c(NCc4cccc(O)c4)ncnc32)[C@H](O)[C@@H]1O | rescued PC12 cells from the apoptosis evoked by serum withdrawal equally as well as 1
2 |  | 0.00651 |  | 27.7 | O=[N+]([O-])c1ccc(CNc2ncnc3c2ncn3[C@@H]2O[C@H](CO)[C@@H](O)[C@H]2O)cc1 | 
3 |  | 0.0144 |  | 14.4 | OC[C@H]1O[C@@H](n2cnc3c(NCc4ccc(Br)cc4)ncnc32)[C@H](O)[C@@H]1O | 
